Measurements published in patent US6368812B1 (priority 1996, dated 2002).

Amino acid sequences for entries named in this document (tags omitted). A change or cut given only in a name is not applied to a line headed by its entry.
UniProt P07480: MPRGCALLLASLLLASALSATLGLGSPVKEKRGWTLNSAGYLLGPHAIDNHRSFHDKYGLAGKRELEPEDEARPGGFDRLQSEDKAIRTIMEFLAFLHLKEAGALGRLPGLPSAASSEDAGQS

T1: rat GALR3 (Rattus norvegicus, UniProt O88626)
T1 sequence (O88626 1-370): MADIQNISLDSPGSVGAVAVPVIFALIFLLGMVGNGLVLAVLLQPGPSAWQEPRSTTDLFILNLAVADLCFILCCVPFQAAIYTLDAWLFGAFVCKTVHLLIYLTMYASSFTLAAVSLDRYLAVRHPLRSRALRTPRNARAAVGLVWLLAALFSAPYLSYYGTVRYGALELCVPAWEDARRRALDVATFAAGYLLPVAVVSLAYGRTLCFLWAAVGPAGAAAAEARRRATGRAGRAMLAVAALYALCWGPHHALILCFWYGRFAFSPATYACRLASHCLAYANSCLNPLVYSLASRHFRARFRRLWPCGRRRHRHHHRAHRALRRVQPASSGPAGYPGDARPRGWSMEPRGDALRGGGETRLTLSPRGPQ

T2: human GALR3 galanin receptor (human, UniProt O60755 1-368)
T2 sequence: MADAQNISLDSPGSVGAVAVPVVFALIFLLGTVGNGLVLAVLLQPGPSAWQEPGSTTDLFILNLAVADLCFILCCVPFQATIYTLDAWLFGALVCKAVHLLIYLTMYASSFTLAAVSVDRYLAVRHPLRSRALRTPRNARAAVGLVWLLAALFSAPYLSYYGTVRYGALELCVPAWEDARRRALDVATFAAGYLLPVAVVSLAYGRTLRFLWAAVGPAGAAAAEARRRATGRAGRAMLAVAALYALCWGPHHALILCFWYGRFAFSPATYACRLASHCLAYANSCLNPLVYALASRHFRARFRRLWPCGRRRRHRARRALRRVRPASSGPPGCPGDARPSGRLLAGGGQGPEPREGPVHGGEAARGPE


What was measured:
rat GALR3 [1] = target: T1, rat GALR3; assay: porcine 125I-galanin binding, rat GALR3 transiently expressed in COS-7 cell membranes
rat GALR3 [2] = target: T1, rat GALR3; assay: porcine 125I-galanin binding, membranes of stable cell line 293-rGalR3-105
[3] = target: T2, human GALR3 galanin receptor; assay: cell-based or functional assay

Molecule | Ki (rat GALR3 [1]) | binding affinity for rat GALR3 in words (rat GALR3 [1]; peptide displacement assays) | Ki (rat GALR3 [2]; Ki (nM) Rat 293-rGalR3-105, Table 5, stable) | Ki (rat GALR3 [2]; Ki (nM) Rat GALR3 293 #105, Table 9) | Oocyte EC50 (stimulation of GIRKs) [3]
CSCC[C@H](NC(=O)[C@H](CC(C)C)NC(=O)CNC(=O)[C@H](Cc1ccccc1)NC(=O)[C@H](Cc1ccccc1)NC(=O)[C@H](CCC(N)=O)NC(=O)[C@H](CCC(N)=O)NC(=O)[C@@H]1CCCN1C(=O)CNC(=O)[C@H](CC(C)C)NC(=O)[C@H](CC(C)C)NC(=O)[C@H](Cc1ccc(O)cc1)NC(=O)CNC(=O)[C@H](C)NC(=O)[C@H](CO)NC(=O)[C@H](CC(N)=O)NC(=O)[C@H](CC(C)C)NC(=O)[C@@H](NC(=O)[C@H](Cc1c[nH]c2ccccc12)NC(=O)CN)[C@@H](C)O)C(N)=O | 9 nM | slightly less active | 7.6 nM | 11.5 nM | –
GWTLNSAGYLLGPHAIDNHRSFHDKYGLA (peptide, UniProt P07480 33-61, looked up) [porcine galanin] | – | – | – | – | 222 nM
